In the assay the target is Acetylcholinesterase (Electrophorus electricus, UniProt O42275). The assay is described as follows: Mixed type inhibition of Electric eel AChE assessed as inhibition constant using acetylthiocholine as substrate after 7 min by Ellman's method. On the technique in general: In Ellman's method for cholinesterases, released thiocholine reacts with DTNB.

Amino acid sequences for entries named in this document (tags omitted). Residues count along the entry.
UniProt O42275, 24-633 limits assumed: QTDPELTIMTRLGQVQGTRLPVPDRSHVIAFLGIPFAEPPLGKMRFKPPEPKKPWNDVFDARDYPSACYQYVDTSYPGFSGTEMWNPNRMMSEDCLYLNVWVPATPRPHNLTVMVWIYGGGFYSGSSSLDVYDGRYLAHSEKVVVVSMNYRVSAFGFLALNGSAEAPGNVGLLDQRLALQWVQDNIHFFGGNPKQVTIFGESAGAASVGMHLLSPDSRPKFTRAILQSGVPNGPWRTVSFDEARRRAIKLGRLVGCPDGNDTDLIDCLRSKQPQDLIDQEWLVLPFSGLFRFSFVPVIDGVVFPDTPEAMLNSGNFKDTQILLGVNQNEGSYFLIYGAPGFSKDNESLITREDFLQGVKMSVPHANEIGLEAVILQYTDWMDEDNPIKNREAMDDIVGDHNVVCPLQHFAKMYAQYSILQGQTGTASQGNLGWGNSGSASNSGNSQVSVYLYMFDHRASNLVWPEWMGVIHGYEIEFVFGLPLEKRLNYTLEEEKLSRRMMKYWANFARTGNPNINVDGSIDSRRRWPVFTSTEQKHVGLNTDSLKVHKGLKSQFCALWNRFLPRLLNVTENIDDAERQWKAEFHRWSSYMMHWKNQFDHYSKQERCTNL

Our source for the Ki values is ChEMBL document CHEMBL4033753, “Study of para-Quinone Methide Precursors toward the Realkylation of Aged Acetylcholinesterase” (2017).

Broadly, the Ki is a dissociation constant, usually derived from enzyme kinetics or from competition with a known ligand.

For `COc1cc(CN(C)C)ccc1O`, the inhibition constant Ki came out at 80 µM.
As for `COc1cc(CN2CCCC2)ccc1O`, the figure is 95 µM.
